Bioassay records as filed in PubChem BioAssay.
A549 viability: kills or reduces viability of A549 cells in Nrf2 counter-screen; Potency, µM (top dose mostly 46 µM), most hits filed as inhibitors; AID 504648; A549 ARE-Fluc cells, CellTiter-Fluor viability, 18-24 h; 390,000 compounds, 0.16% hits
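A549 ARE-Fluc cells in 5% FBS OPTI-MEM, 5000 cells/well, rested 2 h then exposed to compounds in concentration-response for 18-24 h at 37 °C. Viability by CellTiter-Fluor fluorescence (Ex 405/Em 525) after 30 min; luciferase luminescence (BugLite, 15 min, RT) read afterwards.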
Nrf2 ARE act: activates Nrf2 signaling; AREc32 ARE-luciferase reporter (MCF7-derived line), luminescence, 24 h; Potency, µM (highest dose often 46.1 µM), hits mostly activators; 410,000 compounds, 0.31% hits; further: nearly all actives have a fitted effect of over 65% in size
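Luminescent ARE reporter assay in AREc32_Fluc cells: overnight plating at 37 deg C, 24 hr compound incubation, Steady-Glo added, 30 min RT before reading.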
miR-21 reporter: raises the signal of a miR-21 reporter | HeLa miR-21 FLuc reporter, luciferase, 48 h | Potency, µM (highest dose often 38.3 µM) | 340,000 tested, under 10 active; active = well fitted rising curve with a large enough effect; inconclusive = small, poorly fitted or top-dose-only effect; inactive = no such curve, though single readings can be large or run the other way;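 note: miR-21 action dims this reporter so a rising signal means less miR-21 action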
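HeLa cells endogenously expressing miR-21, stably carrying CMV-driven firefly luciferase with a downstream miR-21 binding site, 2000 cells/well. Titrations up to approximately 40 uM, 48 hours; luciferase luminescence read.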
Mito fusion yeast: blocks mitochondrial division or promotes mitochondrial fusion | S. cerevisiae fusion-defective mutant growth rescue, CellTiterGlo 48 h | Potency, µM (highest dose often 46.1 µM), usual class: activators | 320,000 compounds, 0.23% hits; further: nearly all actives have a fitted effect of over 45% in size
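Temperature-sensitive fusion-defective S. cerevisiae (e.g. fzo1-1, mgm1-5) were grown with compound in YPEG medium (3% ethanol, 3% glycerol) for 48 hours at 37C. Growth rescue was measured as viability by CellTiterGlo luminescence after 10 minutes at ambient.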
Nrf2 inh: inhibitors of Nrf2 signaling; A549 ARE-Fluc reporter, luciferase luminescence, 18-24 h; Potency, µM (series often up to 46 µM), usual class: inhibitors; 360,000 compounds, 2.1% hits; AID 504444; further: nearly all actives have a fitted effect of over 60% in size
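In this cell-based qHTS, ARE-driven firefly luciferase in A549 cells reports Nrf2 activity; the luminescent signal after BugLite lysis is the measured value, with a prior CellTiter-Fluor read for cell health.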
Of the large screens only hits and unclear results are named; the others gave an inactive call. A selection: hits, their analogues and other compounds. The true share with any hit is near 2.3%. Unless noted, the call rests on the fitted dose curve; in most records, active means well fitted curve in the direction sought with a large enough effect; inconclusive means small, poorly fitted or top-dose-only effect, or another doubt; inactive means no such curve, though single readings can be large; an effect the other way counts as inactive or inconclusive.

O=C(Nc1cccc(Cl)c1)c1nc[nH]c1C(=O)NCCCCNC(=O)c1[nH]cnc1C(=O)Nc1cccc(Cl)c1	none (no result: miR-21 reporter, Mito fusion yeast)
CC(C)(C)OC(=O)NCCCCCNC(=O)c1[nH]cnc1C(=O)Nc1cccc(Cl)c1	A549 viability inconclusive, Nrf2 inh 21µM (no result: miR-21 reporter)
CC(C)(C)OC(=O)NCCCCCNC(=O)c1[nH]cnc1C(=O)NC1CCN(C(=O)OC(C)(C)C)CC1	Nrf2 inh 21µM (no result: miR-21 reporter)
CC(C)(C)OC(=O)NCCCCCNC(=O)c1nc[nH]c1C(=O)N1CCN(C(=O)OC(C)(C)C)CC1	none (no result: miR-21 reporter)
CC(C)(C)OC(=O)CNC(=O)c1[nH]cnc1C(=O)NCCCCCN	none (no result: miR-21 reporter)
O=C1C(=O)N(c2ccccn2)C(c2ccc(F)cc2)/C1=C(/O)c1ccc(Br)cc1 (stereo not drawn)	Nrf2 inh 8.2µM
O=C1C(=O)N(c2ccccn2)C(c2ccc(Br)cc2)/C1=C(/O)c1ccc(Br)cc1 (stereo not drawn)	Nrf2 inh inconclusive
O=C(Nc1ccc(OCc2ccccc2)cc1)c1cccnc1	none
O=C(Nc1ccc(OCc2ccccc2Cl)cc1)c1cccnc1	Nrf2 inh 9.2µM
CC1(C)CC[C@]2(C(=O)n3ccnc3)CC[C@]3(C)[C@H](C(=O)C=C4[C@@]5(C)C=C(C#N)C(=O)C(C)(C)[C@@H]5CC[C@]43C)[C@@H]2C1	A549 viability 6.5µM, Nrf2 ARE act 1.1µM, Nrf2 inh 5.8µM (no result: miR-21 reporter, Mito fusion yeast)
Cc1cc2c(s1)c1cnn(Cc3c(F)c(F)c(C(F)(F)F)c(F)c3F)c(=O)c1n2C	none (no result: Nrf2 ARE act, miR-21 reporter, Mito fusion yeast)
CCOc1cc(CNCCSc2nnnn2C)cc(Br)c1OCc1ccccc1F	A549 viability inconclusive, Nrf2 inh 23µM
COc1cc(CNCCSc2nnnn2C)cc(Br)c1OCc1ccccc1F	none
O=[N+]([O-])c1cccc(-c2nc(-c3ccncc3)no2)c1	none (no result: Nrf2 inh)
O=[N+]([O-])c1cccc(-c2nc(-c3ccccc3)no2)c1	Nrf2 ARE act 4µM, Nrf2 inh inconclusive
O=[N+]([O-])c1cccc(-c2noc(-c3ccco3)n2)c1	Nrf2 ARE act 7.1µM, Nrf2 inh inconclusive
Cc1ccc(S(=O)(=O)N2CCN(c3nc(C#N)nc4ccccc34)CC2)cc1	none (no result: Nrf2 ARE act, miR-21 reporter, Mito fusion yeast)
CCc1nn2c(=O)cc(N3C(C)CNCC3C)nc2s1 (stereo not drawn)	none (no result: Nrf2 ARE act, miR-21 reporter, Mito fusion yeast)
O=C(CN1CCN(c2ncc(C(F)(F)F)cc2Cl)CC1)NCCNc1ncc(C(F)(F)F)cc1Cl	A549 viability inconclusive, Nrf2 inh 15µM
COc1ccc(C(=O)Nc2nc(-c3ccc([N+](=O)[O-])cc3)c(-c3ccccc3)s2)cc1	Nrf2 inh 13µM (no result: miR-21 reporter, Mito fusion yeast)
C/C(CC(=O)Nc1ccc(Cl)c(C(F)(F)F)c1)=N\NC(=O)c1ccccc1O	A549 viability inconclusive, Nrf2 inh 23µM
O=C(CCNC(=O)c1ccccc1Cl)Nc1ccc(Cl)c(C(F)(F)F)c1	A549 viability inconclusive, Mito fusion yeast 35µM
O=C(Cn1c(=O)nc(-c2ccccc2F)c2cc(Cl)ccc21)NCCCc1ccccc1	none (no result: Mito fusion yeast)
Cc1cccc(S(=O)(=O)NC2CCN(C#N)C2)c1 (stereo not drawn)	none (no result: Nrf2 ARE act, miR-21 reporter, Mito fusion yeast)
NCC(=O)Nc1cccc(-c2nn3c(=O)cc(N4CCNCC4)nc3s2)c1	none (no result: Nrf2 ARE act, miR-21 reporter, Mito fusion yeast)
COCCN(CCOC)C(=O)c1ccc(CSc2nc3ccccc3s2)cc1	Nrf2 inh 13µM
CCN1CCN(S(=O)(=O)c2cc(OCC(=O)NC3CCCCC3)c(C)cc2Cl)CC1	Nrf2 inh 4.1µM
Cc1cc(Cl)c(S(=O)(=O)N2CCCCCC2)cc1OCC(=O)NC1CCCCC1	miR-21 reporter inconclusive
O=C(Nc1ccc2c(c1)CCCN2C(=O)c1cccs1)c1c(F)cccc1Cl	Nrf2 inh 26µM
CCCN(CCC)S(=O)(=O)c1ccc(C(=O)N2CCCc3ccccc32)cc1	Nrf2 inh 18µM
O=C(Nc1ccc(C(=O)N2CCCc3ccccc32)cc1)c1cccs1	A549 viability inconclusive, Nrf2 inh 21µM
CCCN(CCC)S(=O)(=O)c1ccc2c(c1)CCCN2C(C)=O	none
Cc1ccccc1NC(=O)CSc1nc(-c2cccs2)nc2cc(=O)[nH]n12	none
CCOC(=O)c1sc(=S)n(C)c1NC(=O)c1ccccc1C	none
CCOC(=O)c1sc(=S)n(C)c1NC(=O)c1ccc(F)cc1	Nrf2 inh 23µM
